Test system: SUM149 Xenografts
Assay: triple negative, EGFR positive SUM149 Xenografts in mice
Assay type: in vivo
Details: 10 mg/kg/q2w

Substance: Herceptin: trastuzumab (herceptin), protein kinase receptor antagonist not classified under the synthetic small molecules
- T/C [%] Day 42: 153%

— patent US20130012465A1 (Boehringer Ingelheim International GmbH, priority 2009, published 2013)
